# Assay results as given in US9707274B2, “Methods for preventing and treating post-traumatic stress disorder (PTSD)” (priority 2007, dated 2017).
# Several values for one entry are separate records, joined by “and”; a condition that tells them apart may be missing. Equal entries are not always repeated. Where two headings read alike, the source gives them in different places.
# Conditions: for Concentration of KTP, Blood / Concentration of KTP, Caudate/Putamen / Concentration of KTP, Cerebellum / Concentration of KTP, Cerebrospinal Fluid / Concentration of KTP, Frontal Cortex / Concentration of KTP, Heart / Concentration of KTP, Hippocampus / Concentration of KTP, Hypothalamus / Concentration of KTP, Kidney / Concentration of KTP, Liver / Concentration of KTP, Medulla / Concentration of KTP, Muscle / Concentration of KTP, Olfactory Bulbs / Concentration of KTP, Olfactory Epithelium / Concentration of KTP, Parietal Cortex / Concentration of KTP, Pons / Concentration of KTP, Respiratory Epithelium / Concentration of KTP, Septal Nucleus / Concentration of KTP, Spinal Cord Cervical / Concentration of KTP, Spinal Cord Lumbar / Concentration of KTP, Spinal Cord Thoracic / Concentration of KTP, Spleen / Concentration of KTP, Superficial Cervical Nodes / Concentration of KTP, Thalamus / Concentration of KTP, Ventral Meninges / KTP targeting, increase vs intranasal KTP control, dorsal meninges / KTP targeting, increase vs intranasal KTP control, ventral meninges / KTP targeting, increase vs intranasal KTP control, cervical lymph nodes / KTP targeting, increase vs intranasal KTP control, superficial nodes / Concentration of KTP, Anterior Olfactory Nucleus / Concentration of KTP, Carotid Artery / Concentration of KTP, Deep Cervical Nodes / Concentration of KTP, Dorsal Meninges / Concentration of KTP, Spinal Meninges / Concentration of KTP, Trigeminal Nerve: 30 min; for KTP targeting, increase vs intranasal KTP control, cervical lymph nodes / KTP targeting, increase vs intranasal KTP control, superficial nodes: data not shown
# [1] = intranasal KTP control (no PHE), rats
substance,measurement,setting,value
L-tyrosine-D-arginine [KTP],Reduction of KTP blood concentration at 30 minutes,intranasal KTP + 1% PHE vs intranasal KTP control,56%
same,"Concentration of KTP, Blood","intranasal KTP + 1% PHE, rats",5.1 nM and 5.12 ± 0.47 nM
same,"Concentration of KTP, Caudate/Putamen","intranasal KTP + 1% PHE, rats",0.88 ± 0.13 nM
same,"Concentration of KTP, Cerebellum","intranasal KTP + 1% PHE, rats",0.87 ± 0.12 nM
same,"Concentration of KTP, Cerebrospinal Fluid","intranasal KTP + 1% PHE, rats",0.3 nM
same,"Concentration of KTP, Frontal Cortex","intranasal KTP + 1% PHE, rats",1.34 ± 0.20 nM
same,"Concentration of KTP, Heart","intranasal KTP + 1% PHE, rats",0.81 ± 0.08 nM
same,"Concentration of KTP, Hippocampus","intranasal KTP + 1% PHE, rats",0.89 ± 0.12 nM
same,"Concentration of KTP, Hypothalamus","intranasal KTP + 1% PHE, rats",1.66 ± 0.26 nM
same,"Concentration of KTP, Kidney","intranasal KTP + 1% PHE, rats",7.19 ± 1.90 nM
same,"Concentration of KTP, Liver","intranasal KTP + 1% PHE, rats",1.70 ± 0.23 nM
same,"Concentration of KTP, Medulla","intranasal KTP + 1% PHE, rats",0.89 ± 0.14 nM
same,"Concentration of KTP, Muscle","intranasal KTP + 1% PHE, rats",1.42 ± 0.23 nM
same,"Concentration of KTP, Olfactory Bulbs","intranasal KTP + 1% PHE, rats",12.85 ± 3.28 nM
same,"Concentration of KTP, Olfactory Epithelium","intranasal KTP + 1% PHE, rats",5754 ± 1165 nM
same,"Concentration of KTP, Parietal Cortex","intranasal KTP + 1% PHE, rats",1.13 ± 0.16 nM
same,"Concentration of KTP, Pons","intranasal KTP + 1% PHE, rats",0.86 ± 0.13 nM
same,"Concentration of KTP, Respiratory Epithelium","intranasal KTP + 1% PHE, rats",36853 ± 5734 nM
same,"Concentration of KTP, Septal Nucleus","intranasal KTP + 1% PHE, rats",1.24 ± 0.12 nM
same,"Concentration of KTP, Spinal Cord Cervical","intranasal KTP + 1% PHE, rats",0.64 ± 0.17 nM
same,"Concentration of KTP, Spinal Cord Lumbar","intranasal KTP + 1% PHE, rats",0.46 ± 0.06 nM
same,"Concentration of KTP, Spinal Cord Thoracic","intranasal KTP + 1% PHE, rats",0.52 ± 0.10 nM
same,"Concentration of KTP, Spleen","intranasal KTP + 1% PHE, rats",1.26 ± 0.14 nM
same,"Concentration of KTP, Superficial Cervical Nodes","intranasal KTP + 1% PHE, rats",21 nM and 20.89 ± 3.39 nM
same,"Concentration of KTP, Thalamus","intranasal KTP + 1% PHE, rats",0.86 ± 0.11 nM
same,"Concentration of KTP, Ventral Meninges","intranasal KTP + 1% PHE, rats",20.45 ± 2.91 nM
same,"KTP targeting, increase vs intranasal KTP control, dorsal meninges","intranasal KTP + 1% PHE, rats",2.3 fold
same,"KTP targeting, increase vs intranasal KTP control, ventral meninges","intranasal KTP + 1% PHE, rats",3.6 fold
same,"KTP targeting, increase vs intranasal KTP control, cervical lymph nodes","intranasal KTP + 1% PHE, rats",3.0 fold
same,"KTP targeting, increase vs intranasal KTP control, superficial nodes","intranasal KTP + 1% PHE, rats",5.1 fold
same,Reduction of KTP blood concentration at 30 minutes,intranasal KTP + 5% PHE vs intranasal KTP control,66%
same,"Concentration of KTP, Anterior Olfactory Nucleus","intranasal KTP + 5% PHE, rats",2.70 ± 0.42 nM
same,"Concentration of KTP, Carotid Artery","intranasal KTP + 5% PHE, rats",165.44 ± 56.57 nM
same,"Concentration of KTP, Caudate/Putamen","intranasal KTP + 5% PHE, rats",1.08 ± 0.29 nM
same,"Concentration of KTP, Cerebellum","intranasal KTP + 5% PHE, rats",1.37 ± 0.29 nM
same,"Concentration of KTP, Deep Cervical Nodes","intranasal KTP + 5% PHE, rats",93.59 ± 12.01 nM
same,"Concentration of KTP, Dorsal Meninges","intranasal KTP + 5% PHE, rats",6.43 ± 1.65 nM
same,"Concentration of KTP, Frontal Cortex","intranasal KTP + 5% PHE, rats",1.81 ± 0.23 nM
same,"Concentration of KTP, Heart","intranasal KTP + 5% PHE, rats",1.15 ± 0.25 nM
same,"Concentration of KTP, Hippocampus","intranasal KTP + 5% PHE, rats",0.98 ± 0.20 nM
same,"Concentration of KTP, Hypothalamus","intranasal KTP + 5% PHE, rats",3.64 ± 1.31 nM
same,"Concentration of KTP, Kidney","intranasal KTP + 5% PHE, rats",7.39 ± 0.98 nM
same,"Concentration of KTP, Liver","intranasal KTP + 5% PHE, rats",1.58 ± 0.20 nM
same,"Concentration of KTP, Medulla","intranasal KTP + 5% PHE, rats",1.87 ± 0.57 nM
same,"Concentration of KTP, Muscle","intranasal KTP + 5% PHE, rats",0.68 ± 0.04 nM
same,"Concentration of KTP, Olfactory Bulbs","intranasal KTP + 5% PHE, rats",24.48 ± 4.64 nM
same,"Concentration of KTP, Olfactory Epithelium","intranasal KTP + 5% PHE, rats",12492 ± 381 nM
same,"Concentration of KTP, Parietal Cortex","intranasal KTP + 5% PHE, rats",1.28 ± 0.22 nM
same,"Concentration of KTP, Pons","intranasal KTP + 5% PHE, rats",1.97 ± 0.68 nM
same,"Concentration of KTP, Respiratory Epithelium","intranasal KTP + 5% PHE, rats",15908 ± 1702 nM
same,"Concentration of KTP, Septal Nucleus","intranasal KTP + 5% PHE, rats",1.27 ± 0.21 nM
same,"Concentration of KTP, Spinal Cord Cervical","intranasal KTP + 5% PHE, rats",1.37 ± 0.40 nM
same,"Concentration of KTP, Spinal Cord Lumbar","intranasal KTP + 5% PHE, rats",0.45 ± 0.03 nM
same,"Concentration of KTP, Spinal Cord Thoracic","intranasal KTP + 5% PHE, rats",0.50 ± 0.07 nM
same,"Concentration of KTP, Spinal Meninges","intranasal KTP + 5% PHE, rats",2.88 ± 0.77 nM
same,"Concentration of KTP, Spleen","intranasal KTP + 5% PHE, rats",1.49 ± 0.16 nM
same,"Concentration of KTP, Superficial Cervical Nodes","intranasal KTP + 5% PHE, rats",13 nM and 13.24 ± 1.32 nM
same,"Concentration of KTP, Thalamus","intranasal KTP + 5% PHE, rats",1.49 ± 0.49 nM
same,"Concentration of KTP, Trigeminal Nerve","intranasal KTP + 5% PHE, rats",8.63 ± 1.61 nM
same,"Concentration of KTP, Ventral Meninges","intranasal KTP + 5% PHE, rats",20.22 ± 4.50 nM
same,"KTP targeting, increase vs intranasal KTP control, dorsal meninges","intranasal KTP + 5% PHE, rats",3.2 fold
same,"KTP targeting, increase vs intranasal KTP control, ventral meninges","intranasal KTP + 5% PHE, rats",3.4 fold
same,"KTP targeting, increase vs intranasal KTP control, cervical lymph nodes","intranasal KTP + 5% PHE, rats",4.8 fold
same,"KTP targeting, increase vs intranasal KTP control, superficial nodes","intranasal KTP + 5% PHE, rats",4.6 fold
same,"Concentration of KTP, Anterior Olfactory Nucleus",[1],2.42 ± 0.26 nM
same,"Concentration of KTP, Blood",[1],11.7 nM and 11.68 ± 1.33 nM
same,"Concentration of KTP, Carotid Artery",[1],155.55 ± 77.26 nM
same,"Concentration of KTP, Caudate/Putamen",[1],2.13 ± 0.22 nM
same,"Concentration of KTP, Cerebellum",[1],2.10 ± 0.09 nM
same,"Concentration of KTP, Cerebrospinal Fluid",[1],0.5 nM and 0.49 ± 0.09 nM
same,"Concentration of KTP, Deep Cervical Nodes",[1],61.58 ± 18.42 nM
same,"Concentration of KTP, Dorsal Meninges",[1],4.34 ± 0.71 nM
same,"Concentration of KTP, Frontal Cortex",[1],2.24 ± 0.23 nM
same,"Concentration of KTP, Heart",[1],1.46 ± 0.20 nM
same,"Concentration of KTP, Hippocampus",[1],1.90 ± 0.20 nM
same,"Concentration of KTP, Hypothalamus",[1],2.63 ± 0.25 nM
same,"Concentration of KTP, Kidney",[1],49.54 ± 9.46 nM
same,"Concentration of KTP, Liver",[1],6.38 ± 1.12 nM
same,"Concentration of KTP, Medulla",[1],1.87 ± 0.20 nM
same,"Concentration of KTP, Muscle",[1],2.20 ± 0.22 nM
same,"Concentration of KTP, Olfactory Bulbs",[1],4.33 ± 0.59 nM
same,"Concentration of KTP, Olfactory Epithelium",[1],1988 ± 676 nM
same,"Concentration of KTP, Parietal Cortex",[1],2.53 ± 0.12 nM
same,"Concentration of KTP, Pons",[1],1.90 ± 0.09 nM
same,"Concentration of KTP, Respiratory Epithelium",[1],21419 ± 2564 nM
same,"Concentration of KTP, Septal Nucleus",[1],2.09 ± 0.16 nM
same,"Concentration of KTP, Spinal Cord Cervical",[1],1.62 ± 0.40 nM
same,"Concentration of KTP, Spinal Cord Lumbar",[1],1.20 ± 0.13 nM
same,"Concentration of KTP, Spinal Cord Thoracic",[1],1.27 ± 0.24 nM
same,"Concentration of KTP, Spinal Meninges",[1],5.59 ± 1.94 nM
same,"Concentration of KTP, Spleen",[1],3.58 ± 0.72 nM
same,"Concentration of KTP, Superficial Cervical Nodes",[1],6.5 nM and 6.45 ± 0.62 nM
same,"Concentration of KTP, Thalamus",[1],1.83 ± 0.19 nM
same,"Concentration of KTP, Trigeminal Nerve",[1],12.54 ± 3.33 nM
same,"Concentration of KTP, Ventral Meninges",[1],16.66 ± 3.20 nM
same,Peak blood concentration of KTP,"intravenous infusion over 14 minutes, peak at 10 minutes, rats",83 nM
same,"KTP blood concentration, intravenous greater than intranasal","intravenous vs intranasal, rats",5 fold
